# AlphaSeq binding of Ab-14 heavy chain variants to a spike HR2 peptide

Target peptide (SARS-CoV-2 spike, HR2 region): PDVDLGDISGINAS

Parent scFv Ab-14: VH joined to VL by three GGGGS repeats. Changes lie in the heavy chain CDRs alone.
VH: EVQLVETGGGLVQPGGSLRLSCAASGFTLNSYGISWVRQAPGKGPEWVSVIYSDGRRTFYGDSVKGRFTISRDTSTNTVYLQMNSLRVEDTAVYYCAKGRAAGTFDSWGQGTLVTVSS
VL: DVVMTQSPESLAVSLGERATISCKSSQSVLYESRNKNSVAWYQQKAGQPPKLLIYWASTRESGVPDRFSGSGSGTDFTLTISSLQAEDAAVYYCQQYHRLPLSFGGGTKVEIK

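AAYL49 was designed without a model: most single CDR substitutions and a random sample of double and triple ones. The assay is AlphaSeq: two haploid yeast populations carry antibody and antigen on their surface. Pairs that bind mate more often; barcode pairs of the diploids are counted by sequencing. A regression on co-assayed BCL2-family reference pairs converts the normalised counts of each replicate to an apparent Kd. There are three technical replicates.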

Each variant is given by its three heavy chain CDRs, as the data file delimits them; those of the parent are GFTLNSYGIS, VIYSDGRRTFYGDSVK, GRAAGTFDS.
This list gathers variants with a substitution at D54 (VH, numbered from residue 1).
Kd is apparent (estimated from mating counts) and averaged on the log scale over replicates with a signal. Smaller is tighter.
Where no diploid with the target was found in any replicate, the entry reads "nd": below detection, most likely a poor binder, though not proof of it.

Variant GFRLNSYGIS | VIYSIGRRTFYGDSVS | GRAAGTFDS showed nd (0 of 3 replicates). Variant GFTLNDYGIS | VIYSKGRRTFYGDSVK | GRFAGTFDS showed nd (0 of 3 replicates). Variant CFTLSSYGIS | VIYSGGRRTFYGDSVK | GRAAGTFDS gave nd (0 of 3 replicates). With GFTLNSYGIS | QIYSGGRRTFYGDSVK | GRAAGCFDS the result was nd (0 of 3 replicates). For GFTLNSYGIS | VIYSWGRRTFYGDSVK | GRAASMFDS, the assay gave 56 µM (1 of 3 replicates). With GFTLVSYGIS | VIYSYGRRTFYGDSVK | GRWAGTFDS the result was nd (0 of 3 replicates). For GFYLNSYGIS | VIYSMGNRTFYGDSVK | GRAAGTFDS, the assay gave 46 µM (1 of 3 replicates).

Variant GFTLNSYGIS | PIYSPGRRTFYGDSVK | GMAAGTFDS gave 9.0 µM (1 of 3 replicates). Variant GFTLHSYGIS | VIYVKGRRTFYGDSVK | GRAAGTFDS showed 10 µM (1 of 3 replicates). Variant GHTLNSHGIS | VIYSMGRRTFYGDSVK | GRAAGTFDS gave nd (0 of 3 replicates). Variant GFTLNSYGIS | VIYYCGARTFYGDSVK | GRAAGTFDS gave nd (0 of 3 replicates). With GFTQNSYGIS | VIYSEGRRTFYGDSVK | GRAARTFDS the result was 5.9 µM (2 of 3 replicates). For GFTLNSYGIS | VIYSCGRRTHYMDSVK | GRAAGTFDS, the assay gave nd (0 of 3 replicates). Variant GFRLNFYGIS | VIYSFGRRTFYGDSVK | GRAAGTFDS gave nd (0 of 3 replicates).

With GFTLNSYGIS | VTYSQGRRTFYGDSVK | GRAAGTFMS the result was nd (0 of 3 replicates). Variant GFTLPSYGIS | VIYSMGRRTFYHDSVK | GRAAGTFDS showed 160 µM (2 of 3 replicates). For GFTLNSYGIS | VICSMGRRTFYMDSVK | GRAAGTFDS, the assay gave 990 µM (1 of 3 replicates). For GFTVNSYGIS | VIYSQGRRTFYGDSVK | GRAAGTFVS, the assay gave 1.4 µM (1 of 3 replicates). With GFTLNSYGIS | VIYSVGRRTFYGDSVK | GRAAGTRIS the result was nd (0 of 3 replicates). Variant GFTLNSYGIS | VIESPGRRTFYGDSVK | GRAAGTFCS gave 950 nM (2 of 3 replicates). With GFTINSYGIS | VIYSGGRRTFYGDSVK | PRAAGTFDS the result was nd (0 of 3 replicates).

Variant GFTLNSYGIS | VIYSEGRITFYGSSVK | GRAAGTFDS showed nd (0 of 3 replicates). With GFTLNSYGIY | VIYSYGRRTFYGDSVK | GRAAGTFDS the result was nd (0 of 3 replicates). For GFTLNSYGIS | VIYSMGRRTFYGGSVK | GRAAGSFDS, the assay gave nd (0 of 3 replicates). Variant GFTLNSYGIS | VIYSMGRPTFYGDSVK | GRAAGFFDS showed nd (0 of 3 replicates). For GTTLNSYGIS | VSYSYGRRTFYGDSVK | GRAAGTFDS, the assay gave nd (0 of 3 replicates). Variant GFMLNSYGIS | DIYSAGRRTFYGDSVK | GRAAGTFDS gave 590 nM (1 of 3 replicates). With GFTLNSYGWS | VIYSQGRRTFYGDSVK | GRAAGTFDD the result was nd (0 of 3 replicates).

For GFTLNSYGIS | VIYSEGTRTFYGDSVK | GRAAETFDS, the assay gave 22 µM (1 of 3 replicates). For CFTLNSYGIS | VIYSEGRRTFYEDSVK | GRAAGTFDS, the assay gave nd (0 of 3 replicates). Variant GFTLNSYGIS | VIYSRGRWWFYGDSVK | GRAAGTFDS gave nd (0 of 3 replicates). With GFTLYEYGIS | VIYSGGRRTFYGDSVK | GRAAGTFDS the result was nd (0 of 3 replicates). Variant GFTLNSYGIS | VIYSTGRLTFYGDSRK | GRAAGTFDS gave nd (0 of 3 replicates). With GFTLNSNFIS | VIYSYGRRTFYGDSVK | GRAAGTFDS the result was 8.5 µM (1 of 3 replicates). With GFTLNSYGIS | VIYSWGRRTAYGDSVK | GRAAGTFDD the result was nd (0 of 3 replicates).

For GFTLNSYGSS | VIYSHGRRTFYGDFVK | GRAAGTFDS, the assay gave nd (0 of 3 replicates). With GFTLNSYGIS | VIYSAQRRTFYGDSVK | GRAAGTFDS the result was nd (0 of 3 replicates). Variant GFTLNSYGIS | VIYSIGRRTFYGDSVK | MRAAGTFDP showed nd (0 of 3 replicates). Variant EFTLNSYGIS | VIYSIGRRTFYGDRVK | GRAAGTFDS showed nd (0 of 3 replicates). With GFTLNSYGIS | VIYSHGRRTFYDDSVK | GRAAGTFDS the result was nd (0 of 3 replicates). For GFTMNSYGIS | VIYSQGRDTFYGDSVK | GRAAGTFDS, the assay gave 12 µM (1 of 3 replicates). With GFTLNSYGIS | VIYSQGRRTFYGDSVK | GPAAGTFDS the result was nd (0 of 3 replicates).

Variant GFTLNSRGIS | VEYSKGRRTFYGDSVK | GRAAGTFDS showed 44 µM (2 of 3 replicates). Variant GFTWNSYGIS | VIYSCGRRIFYGDSVK | GRAAGTFDS gave 1.4 µM (1 of 3 replicates). Variant GFTLNSCGIS | VIYSYGRRTFYGDSVK | GRAAGVFDS showed nd (0 of 3 replicates). For GFTLNSYGIS | VIYSTGRRQFYGDSVK | GHAAGTFDS, the assay gave 1.8 mM (1 of 3 replicates).

The first 3 variants above that were never detected:

Variant GFRLNSYGIS | VIYSIGRRTFYGDSVS | GRAAGTFDS showed nd (0 of 3 replicates).
Variant GFTLNDYGIS | VIYSKGRRTFYGDSVK | GRFAGTFDS showed nd (0 of 3 replicates).
Variant CFTLSSYGIS | VIYSGGRRTFYGDSVK | GRAAGTFDS showed nd (0 of 3 replicates).

In this assay the parent's reference entry averaged 4.4 nM; its copy inside this library read 13 µM (one replicate of three).
Background: pairings of library AAYL49 with three empty control strains gave a value in 15% of cases (median 11 µM, 5th percentile 680 nM). Values in that range, when seen in few replicates, are hard to tell from nonspecific mating.

Data: MIT Lincoln Laboratory AlphaSeq set, Engelhart et al. 2022, doi:10.1038/s41597-022-01779-4, as distributed in FLAb.